Experimental data taken from patent US11946094B2, “Combination therapies and methods of use thereof” (Augusta University Research Institute, Inc., priority 2017, dated 2024).

System: OVCAR-8 cells
Assay: Drug-siRNA combination screen: 346-compound anticancer library at 100 nM, CCK-8 viability

CN(Cc1cnc2nc(N)nc(N)c2n1)c1ccc(C(=O)N[C@@H](CCC(=O)O)C(=O)O)cc1 [Methotrexate]
synergy / antagonism of drug with gene knockdowns, in words: antagonism with most knockdowns
